Test results taken from patent publication EP4063344A1, “SALT OF 2-ADAMANTYL ACETIC ACID HAVING ANTI-VIRAL ACTIVITY, FORMULATIONS THEREOF AND USES THEREOF” (Sciamannini, Umbro, priority 2021, dated 2022).

System: mice

Substance: 1-hexadecanaminium, N,N,N,trimethyl-tricyclo[3.3.1.13,7]decane-2-acetate(1:1) [salt of the invention]
- LD50 (oral in mice): > 2000 mg/kg
